Target: Mu-type opioid receptor (Rattus norvegicus, UniProt P33535)
Assay: Agonist activity at mu opioid receptor in Wistar rat brain membranes after 60 mins by [35S]GTPgammaS binding assay
Format: functional, cell membranes, Membrane

Amino acid sequences for entries named in this document (tags omitted).
UniProt P33535, whole entry: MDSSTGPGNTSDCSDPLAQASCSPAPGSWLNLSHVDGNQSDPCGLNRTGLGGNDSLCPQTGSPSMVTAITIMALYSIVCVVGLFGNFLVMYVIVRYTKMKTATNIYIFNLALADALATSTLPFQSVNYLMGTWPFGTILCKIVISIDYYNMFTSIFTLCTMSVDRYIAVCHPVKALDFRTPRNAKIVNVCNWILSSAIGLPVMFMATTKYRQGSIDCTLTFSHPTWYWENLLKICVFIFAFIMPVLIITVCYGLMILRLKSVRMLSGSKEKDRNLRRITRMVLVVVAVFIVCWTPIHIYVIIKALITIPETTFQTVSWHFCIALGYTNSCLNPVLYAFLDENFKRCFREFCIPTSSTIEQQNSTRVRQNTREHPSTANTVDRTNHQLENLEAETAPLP

C[C@@H](NC(=O)[C@@H](N)Cc1ccc(O)cc1)C(=O)NCC(=O)N(C)[C@@H](Cc1ccccc1)C(=O)NCCO [DAMGO]
EC50: 485 nM

From ChEMBL document CHEMBL2177071, “The effect of Pro(2) modifications on the structural and pharmacological properties of endomorphin-2” (J Med Chem, 2012)
